Source: publication PMC8958505, “Discovery of Potential Neuroprotective Agents against Paclitaxel-Induced Peripheral Neuropathy” (Journal of Medicinal Chemistry, 2022)
Structures can show the parent of a compound that is named as a salt.

Assays:
sciatic nerve fibers = experiment: Ultrastructure evaluation of the sciatic nerve (TEM); assay type: in vivo, mouse
Excerpt: Sciatic nerves were isolated from mice after drug treatment and behavioral tests to examine the ultrastructure of nerve fibers. […] To evaluate the integrity of myelin, we calculated the G-ratio (axon perimeter/myelin perimeter) in different treatment groups. Because the symptoms of PIPN mostly manifest with sensory impairment,[28] we roughly classified nerve fibers into larger fibers (diameter > 5 μm) and small fibers (diameter < 5 μm) depending on the type of sensory information conveyed.[29] Large fibers with greater than 5 μm diameter carry information related to proprioception, touch, and pressure. In contrast, small fibers with less than 5 μm diameter carry information related to temperature and pain.
Sciatic nerve samples from mice from each treatment group were isolated after the last time point of mouse behavioral tests. Fixation of sciatic nerves with 4% glutaraldehyde and post fixation with 1% osmium tetroxide solution at 4 °C were performed. […] Transmission electron microscopy (H7650, Hitachi) was used to observe the ultrastructure in the cross section of the sciatic nerves.

CYP 1A2 = biological target: T1, CYP 1A2 (Homo sapiens, UniProt P05177); experiment: Cytochrome P450 testing, CYP 1A2; assay type: in vitro ADME; details: phenacetin O-deethylation; read-out: Concentration of inhibition (IC50), CYP 1A2
T1 construct: host or cells: baculovirus-infected insect cells (supersomes)
Excerpt: (§1) Cytochrome P450 testing of CN016
(§2) The effects of CN016 on the activity of six specific human liver cytochrome P450 isozymes (CYP 1A2, 2C9, 2C19, 2D6, 2E1, 3A4) expressed in baculovirus-infected insect cell supersomes were studied. The reactions used to measure the activity of these enzymes were phenacetin O-deethylation (1A2), diclofenac 4-hydroxylation (2C9), mephenytoin 4-hydroxylation (2C19), dextromethorphan O-demethylation (2D6), chlorzoxazone 6-hydroxylation (2E1) and testosterone 6-hydroxylation (3A4).
(§3) Furafylline, sulfaphenazole, tranylcypromine, quinidine, diethyldithiocarbamate and azamulin were used as reference inhibitors of these enzymes. Incubation mixtures containing no CN016 or reference inhibitors were used as controls. The tested result […]
(§4) Table S4. Result of Cytochrome P450 testing of CN016

CYP 3A4 = biological target: T2, CYP 3A4 (Homo sapiens, UniProt P08684); experiment: Cytochrome P450 testing, CYP 3A4; assay type: in vitro ADME; details: testosterone 6-hydroxylation; read-out: Concentration of inhibition (IC50), CYP 3A4
T2 construct: host or cells: baculovirus-infected insect cells (supersomes)
Excerpt: as §1, §2, §3, §4

Adenosine A1 = Adenosine A1 (Homo sapiens, UniProt P30542); experiment: LeadProfilingScreen: Adenosine A1; assay type: binding
Adrenergic α1A = Adrenergic α1A (Homo sapiens, UniProt P35348); experiment: LeadProfilingScreen: Adrenergic α1A; assay type: binding
Adrenergic α1B = Adrenergic α1B (Homo sapiens, UniProt P35368); experiment: LeadProfilingScreen: Adrenergic α1B; assay type: binding
Adrenergic α2A = Adrenergic α2A (Homo sapiens, UniProt P08913); experiment: LeadProfilingScreen: Adrenergic α2A; assay type: binding
Adrenergic β2 = Adrenergic β2 (Homo sapiens, UniProt P07550); experiment: LeadProfilingScreen: Adrenergic β2; assay type: binding; details: read-out: Inhibition (%), Adrenergic β2
Excerpt: LeadProfilingScreen (Total # of Assays: 67)
To evaluate, in LeadProfilingScreen, the activity of test compound CN168 (Panlabs # 1251879). […]
Summary of Significant Results
Biochemical assay results are presented as the percent inhibition of specific binding or activity throughout the report.
All other results are expressed in terms of that assay's quantitation method.
• For primary assays, only the lowest concentration with a significant response judged by the assays' criteria, is […]
• Where applicable, either the secondary assay results with the lowest dose/concentration meeting the significance […]
• Unless otherwise requested, primary screening in duplicate with quantitative data (e.g., IC50 ± SEM, Ki ± SEM and nH) are shown where applicable for individual requested assays. In screening packages, primary screening in duplicate with semi-quantitative data (e.g., estimated IC50, Ki and nH) are shown where applicable (concentration range of 4 log units); available secondary functional assays are carried out ([…]) and MEC or MIC determined only if active in primary assays >50% at 1 log unit below initial test concentration. […]

[1] = system: Calcium Channel L-Type, Dihydropyridine; experiment: LeadProfilingScreen: Calcium Channel L-Type, Dihydropyridine; assay type: binding, rat; details: 10 μM
Cannabinoid CB1 = Cannabinoid CB1 (Homo sapiens, UniProt P21554); experiment: LeadProfilingScreen: Cannabinoid CB1; assay type: binding
Dopamine D2S = Dopamine D2S (Homo sapiens, UniProt P14416); experiment: LeadProfilingScreen: Dopamine D2S; assay type: binding
Dopamine D4.4 = Dopamine D4.4 (Homo sapiens, UniProt P21917); experiment: LeadProfilingScreen: Dopamine D4.4; assay type: binding
Endothelin ETB = Endothelin ETB (Homo sapiens, UniProt P24530); experiment: LeadProfilingScreen: Endothelin ETB; assay type: binding
[2] = biological target: Epidermal Growth Factor (EGF) (Homo sapiens, UniProt P00533); experiment: LeadProfilingScreen: Epidermal Growth Factor (EGF); assay type: binding
Glucocorticoid = Glucocorticoid (Homo sapiens, UniProt P04150); experiment: LeadProfilingScreen: Glucocorticoid; assay type: binding
Interleukin IL-1 R1 = Interleukin IL-1 R1 (Homo sapiens, UniProt P14778); experiment: LeadProfilingScreen: Interleukin IL-1 R1; assay type: binding
Melatonin MT1 = Melatonin MT1 (Homo sapiens, UniProt P48039); experiment: LeadProfilingScreen: Melatonin MT1; assay type: binding
Muscarinic M2 = Muscarinic M2 (Homo sapiens, UniProt P08172); experiment: LeadProfilingScreen: Muscarinic M2; assay type: binding
[3] = biological target: Nicotinic Acetylcholine α3β4 (Homo sapiens, UniProt P30926+P32297); experiment: LeadProfilingScreen: Nicotinic Acetylcholine α3β4; assay type: binding
Opiate κ (OP2, KOP) = Opiate κ (OP2, KOP) (Homo sapiens, UniProt P41145); experiment: LeadProfilingScreen: Opiate κ (OP2, KOP); assay type: binding
Phorbol Ester = experiment: LeadProfilingScreen: Phorbol Ester; assay type: binding, mouse; details: 10 μM
[4] = biological target: Platelet Activating Factor (PAF) (Homo sapiens, UniProt P25105); experiment: LeadProfilingScreen: Platelet Activating Factor (PAF); assay type: binding
Prostanoid EP4 = Prostanoid EP4 (Homo sapiens, UniProt P35408); experiment: LeadProfilingScreen: Prostanoid EP4; assay type: binding
[5] = biological target: Serotonin (5-Hydroxytryptamine) 5-HT1A (Homo sapiens, UniProt P08908); experiment: LeadProfilingScreen: Serotonin 5-HT1A; assay type: binding
Thyroid Hormone = experiment: LeadProfilingScreen: Thyroid Hormone; assay type: binding, rat; details: 10 μM
Nicotinic Acetylcholine = experiment: 67 off-target study: Nicotinic Acetylcholine (as named in Table S5); assay type: binding; details: 10 μM; item as named in Table S5

O=P(O)(O)CCN1CCC(Nc2cc(N3CCOCC3)nc(NCc3cn(CCCO)nn3)n2)CC1 [CN016, {2-[4-(2-{[1-(3-Hydroxy-propyl)-1H-[1,2,3]triazol-4-ylmethyl]-amino}-6-morpholin-4-yl-pyrimidin-4-ylamino)-piperidin-1-yl]-ethyl}-phosphonic Acid Hydrobromide Salt]
myelinated fiber density of sciatic nerve (restoration of fiber loss) (sciatic nerve fibers; dose-dependent, particularly at 20 mg/kg): significantly restored
integrity of large fibers (diameter > 5 μm) of sciatic nerve (sciatic nerve fibers; paclitaxel with pretreated CN016 5, 10 and 20 mg/kg): did not affect the integrity of large fibers
G-ratio in small fibers (diameter < 5 μm) of sciatic nerve (sciatic nerve fibers; pretreated, particularly at 10 or 20 mg/kg, paclitaxel-treated mice): could rescue the observed axonal damage
proportion of atypical mitochondria in sciatic nerve (sciatic nerve fibers; pretreatment, paclitaxel-treated mice): significantly decreased
IC50 (CYP 1A2): > 100 µM
IC50 (CYP 3A4): > 100 µM
inhibition at 10 µM (Adenosine A1): -9%
inhibition at 10 µM (Adrenergic α1A): -9%
inhibition at 10 µM (Adrenergic α1B): 14%
inhibition at 10 µM (Adrenergic α2A): -4%
inhibition at 10 µM (Adrenergic β2): -4%
Inhibition (%), Calcium Channel L-Type, Dihydropyridine [1]: 14%
inhibition at 10 µM (Cannabinoid CB1): -5%
inhibition at 10 µM (Dopamine D2S): 3%
inhibition at 10 µM (Dopamine D4.4): 12%
inhibition at 10 µM (Endothelin ETB): -1%
inhibition at 10 µM [2]: -1%
inhibition at 10 µM (Glucocorticoid): 14%
inhibition at 10 µM (Interleukin IL-1 R1): -3%
inhibition at 10 µM (Melatonin MT1): 6%
inhibition at 10 µM (Muscarinic M2): -1%
inhibition at 10 µM [3]: 7%
inhibition at 10 µM (Opiate κ (OP2, KOP)): 3%
Inhibition (%), Phorbol Ester (Phorbol Ester): -3%
inhibition at 10 µM [4]: -6%
inhibition at 10 µM (Prostanoid EP4): 4%
inhibition at 10 µM [5]: 2%
Inhibition (%), Thyroid Hormone (Thyroid Hormone): 7%
Inhibition (%), Nicotinic Acetylcholine (Nicotinic Acetylcholine): -6%
